{"source": "paper PMC10609720", "about": "“Antiviral Activity of Flavonoids from Geopropolis of the Brazilian Jandaira Bee against Zika and Dengue Viruses” (Pharmaceutics, 2023)", "tested_on": "DENV-2", "assay": "Post-treatment antiviral assay, viral titration by TCID50, DENV-infected Vero cells", "assay_type": "cell-based", "settings": "treatment at CC20, microscopy, Figure 5B,C", "experimental": "One day prior to infection with the ZIKV or DENV strain, Vero cells were seeded in 24-well plates (5 × 10^4 cells/well). The infection was performed at the multiplicity of infection (MOI) of 0.1 for 2 h at 37 °C in 5% CO2. After virus internalization, the inoculum was removed, and the cells were washed using the growth medium. […] 6-MMPr, used as positive control drug, was also included as a drug treatment in some wells [33]. Controls of mock (non-infected) and infected non-treated cells were included. At 120 h post-infection (hpi), the cytopathic effect was evaluated using an inverted microscope (AE2000 binocular microscope, Motic, Hong Kong), and cells were photographed with a smartphone. The cell supernatant was harvested at 120 hpi and stored at −80 °C for posterior virus titration, using the TCID50 method.\nThe TCID50 method was used here to perform viral titration. The titer values were expressed as log10 TCID50/mL. One day prior to titration, Vero cells were seeded in a 96-well plate (1 × 10^4 cells/well) at 37 °C in a 5% CO2 incubator. […]\nThe differences in viral titer of treated and untreated infected cells were analyzed according to ANOVA followed by the Dunnett test using GraphPad Prism software v.5.01 (GraphPad Software, La Jolla, CA, USA). […] The CC50 and CC20 values were also calculated using GraphPad Prism software in a non-linear regression interpretation. […]", "data": [{"smiles": "O=C1C[C@@H](c2ccc(O)cc2)Oc2cc(O)cc(O)c21", "note": "[Naringenin]", "values": [{"measurement": "DENV-induced cytopathic effect in Vero cell monolayers", "value": "prevented morphological modifications"}]}]}
